Measurements from patent US20070254863A1 (published 2007).

Sequences of proteins named here, by UniProt entry; tags and fusion partners are left off.
UniProt P34972, whole entry: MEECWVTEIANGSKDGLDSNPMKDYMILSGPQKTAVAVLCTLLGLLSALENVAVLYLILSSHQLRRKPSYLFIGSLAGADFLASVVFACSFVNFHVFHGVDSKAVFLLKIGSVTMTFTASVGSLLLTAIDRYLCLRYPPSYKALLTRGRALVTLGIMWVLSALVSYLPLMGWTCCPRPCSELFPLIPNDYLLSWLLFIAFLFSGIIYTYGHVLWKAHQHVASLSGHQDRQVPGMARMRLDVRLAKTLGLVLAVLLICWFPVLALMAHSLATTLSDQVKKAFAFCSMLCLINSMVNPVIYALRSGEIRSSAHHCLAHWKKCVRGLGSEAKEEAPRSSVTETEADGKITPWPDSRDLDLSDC

Molecular target: human cannabinoid CB2 receptor (Homo sapiens, UniProt P34972)
Experiment: biochemical

CCCCCCC(C)(C)c1cc(OC)c(C2C=C(CO)[C@H]3C[C@@H]2C3(C)C)c(OC)c1 (stereo in doubt) [HU308, {4-[4-(1,1-Dimethyl-heptyl)-2,6-dimethoxy-phenyl]-6,6-dimethyl-bicyclo[3.1.1]hept-2-en-2-yl}-methanol, reference compound]
Ki: 15.8 nM
